In general, IC50 refers to the concentration that inhibits the measured activity by half. Lower therefore signals inhibition by little substance.

Sequences of proteins named here, by UniProt entry; tags and fusion partners are left off. Residues count along the entry.
UniProt P23739, 1014-1841 limits assumed: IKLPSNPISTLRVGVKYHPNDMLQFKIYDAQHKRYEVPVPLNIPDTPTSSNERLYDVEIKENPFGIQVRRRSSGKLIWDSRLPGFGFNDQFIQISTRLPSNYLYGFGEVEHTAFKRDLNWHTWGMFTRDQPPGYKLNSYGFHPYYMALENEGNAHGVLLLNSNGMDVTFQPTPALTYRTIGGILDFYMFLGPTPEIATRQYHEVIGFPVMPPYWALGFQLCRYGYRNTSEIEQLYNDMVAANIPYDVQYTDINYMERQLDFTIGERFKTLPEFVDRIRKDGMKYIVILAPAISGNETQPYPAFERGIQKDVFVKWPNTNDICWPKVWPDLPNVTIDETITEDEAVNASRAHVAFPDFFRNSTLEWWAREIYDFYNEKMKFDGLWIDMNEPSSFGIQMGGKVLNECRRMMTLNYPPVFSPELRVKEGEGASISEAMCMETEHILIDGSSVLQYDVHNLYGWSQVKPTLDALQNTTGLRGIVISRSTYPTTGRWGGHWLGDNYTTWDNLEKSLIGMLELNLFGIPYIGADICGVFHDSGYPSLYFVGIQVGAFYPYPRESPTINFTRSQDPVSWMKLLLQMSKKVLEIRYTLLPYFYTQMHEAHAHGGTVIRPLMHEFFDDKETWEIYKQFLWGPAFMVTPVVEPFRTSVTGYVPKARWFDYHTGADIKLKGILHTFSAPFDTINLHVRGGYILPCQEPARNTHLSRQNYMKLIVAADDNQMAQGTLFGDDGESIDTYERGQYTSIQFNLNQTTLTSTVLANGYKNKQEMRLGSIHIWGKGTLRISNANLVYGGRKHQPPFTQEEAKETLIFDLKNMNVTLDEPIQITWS
UniProt P23739, 1-1013 limits assumed: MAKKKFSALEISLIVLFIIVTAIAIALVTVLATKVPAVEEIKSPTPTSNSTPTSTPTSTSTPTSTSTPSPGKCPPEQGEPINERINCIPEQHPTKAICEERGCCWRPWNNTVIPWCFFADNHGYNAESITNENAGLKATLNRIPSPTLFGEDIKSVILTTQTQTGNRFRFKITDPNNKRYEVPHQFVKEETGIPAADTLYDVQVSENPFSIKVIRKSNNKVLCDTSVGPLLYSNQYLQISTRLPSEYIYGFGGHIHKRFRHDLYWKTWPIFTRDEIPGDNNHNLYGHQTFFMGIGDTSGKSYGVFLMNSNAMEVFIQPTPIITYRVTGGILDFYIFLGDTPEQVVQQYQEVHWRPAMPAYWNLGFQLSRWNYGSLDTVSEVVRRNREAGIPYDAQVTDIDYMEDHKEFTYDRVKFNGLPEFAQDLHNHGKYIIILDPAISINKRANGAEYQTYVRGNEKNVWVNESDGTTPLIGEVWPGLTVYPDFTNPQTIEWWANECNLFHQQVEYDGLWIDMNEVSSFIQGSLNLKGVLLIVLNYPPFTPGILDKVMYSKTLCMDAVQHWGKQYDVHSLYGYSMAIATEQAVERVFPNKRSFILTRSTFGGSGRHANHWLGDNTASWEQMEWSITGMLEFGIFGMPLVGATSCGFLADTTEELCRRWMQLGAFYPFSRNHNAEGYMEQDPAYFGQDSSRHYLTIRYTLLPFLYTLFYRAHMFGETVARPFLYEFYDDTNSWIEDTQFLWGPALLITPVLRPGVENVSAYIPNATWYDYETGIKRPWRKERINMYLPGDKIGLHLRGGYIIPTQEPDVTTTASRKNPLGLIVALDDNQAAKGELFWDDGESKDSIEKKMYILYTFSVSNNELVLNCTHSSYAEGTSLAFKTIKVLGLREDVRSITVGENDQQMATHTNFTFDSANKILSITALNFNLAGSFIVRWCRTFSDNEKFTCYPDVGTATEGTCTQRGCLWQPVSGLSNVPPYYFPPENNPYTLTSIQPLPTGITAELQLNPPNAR

The target in this test is Sucrase-isomaltase, intestinal (Rattus norvegicus, UniProt P23739). Kind of test: Inhibition of rat small intestinal sucrase after 30 mins. Put shortly:
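Enzyme source was rat small-intestinal brush-border membrane vesicles suspended in 0.1 M maleate buffer, pH 6.0. Substrate solutions were maltose 74 mM (maltase), sucrose 74 mM (sucrase) and isomaltose 7.4 mM (isomaltase). These were mixed with compound (DMSO, final 2.5%) and enzyme, incubated at 37 °C for 30 min, then boiled 2 min. Glucose was measured by glucose oxidase. IC50 was read graphically from % inhibition versus log concentration.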

The compound `C[C@H]1O[C@H](O[C@H]2[C@H](O)[C@@H](O)[C@@H](O[C@H]3[C@H](O)[C@@H](O)C(O)O[C@@H]3CO)O[C@@H]2CO)[C@H](O)[C@@H](O)[C@@H]1N[C@H]1C=C(CO)[C@@H](O)[C@H](O)[C@H]1O` (stereo partly specified) [ACARBOSE] came in with an IC50 of 2 µM.
